According to US20080280851A1 (Clavis Pharma AS, priority 2005, published 2008):

What was measured:
[1] = system: Colon 6044 (human colon carcinoma); assay: Antitumour activity in Co6044 after oral administration (Table 3); conditions: for Optimum T/C (on day): Q3 × 5
[2] = system: Colon 6044 (human colon carcinoma); conditions: mouse, in vivo

**Q.** `Nc1ccn([C@@H]2O[C@H](CO)[C@@H](O)C2(F)F)c(=O)n1` [Gemcitabine, 2′,2′-difluorodeoxycytidine, reference compound] was tested. Which “Optimum T/C (on day)” value ([1]; 120 mg/kg) did it give?
**A.** Its value is “Toxic”.

**Q.** And the “Toxic deaths (d)” value ([1]; 120 mg/kg, Q3 × 5, deaths on days 11-16)?
**A.** The value was 7/8 (11-16).

**Q.** And the “Optimum T/C (on day)” value ([1]; 180 mg/kg)?
**A.** The value was “Toxic”.

**Q.** What about the “Toxic deaths (d)” value ([1]; 180 mg/kg, Q3 × 5, deaths on days 11-16) of the same compound?
**A.** Its value is 7/8 (11-16).

**Q.** And the “Optimum T/C (on day)” value ([1]; 240 mg/kg)?
**A.** Its value is “Toxic”.

**Q.** What about the “Toxic deaths (d)” value ([1]; 240 mg/kg, Q3 × 5, deaths on days 11-15) of the same compound?
**A.** The value was 8/8 (11-15).

**Q.** What about the “toxicity after oral administration compared to intraperitoneal (parenteral) administration” value [2] of the same compound?
**A.** Its value is “largely increased”.
